Measured values published in ChEMBL document CHEMBL1177813, “Design and synthesis of trivalent ligands targeting opioid, cholecystokinin, and melanocortin receptors for the treatment of pain” (Bioorg Med Chem Lett, 2010).

Protein sequences, listed by entry. Tags and fused reporters are not part of them.
UniProt P32300, whole entry: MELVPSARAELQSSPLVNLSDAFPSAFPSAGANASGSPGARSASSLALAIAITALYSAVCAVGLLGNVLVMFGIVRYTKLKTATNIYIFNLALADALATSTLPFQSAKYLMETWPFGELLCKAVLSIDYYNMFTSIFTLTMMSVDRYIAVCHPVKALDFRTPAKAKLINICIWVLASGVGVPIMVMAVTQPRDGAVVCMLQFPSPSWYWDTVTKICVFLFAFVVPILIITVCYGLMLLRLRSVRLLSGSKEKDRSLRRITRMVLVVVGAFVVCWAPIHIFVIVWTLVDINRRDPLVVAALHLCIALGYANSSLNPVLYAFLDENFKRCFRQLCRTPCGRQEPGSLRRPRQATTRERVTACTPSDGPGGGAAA
UniProt P41143, whole entry: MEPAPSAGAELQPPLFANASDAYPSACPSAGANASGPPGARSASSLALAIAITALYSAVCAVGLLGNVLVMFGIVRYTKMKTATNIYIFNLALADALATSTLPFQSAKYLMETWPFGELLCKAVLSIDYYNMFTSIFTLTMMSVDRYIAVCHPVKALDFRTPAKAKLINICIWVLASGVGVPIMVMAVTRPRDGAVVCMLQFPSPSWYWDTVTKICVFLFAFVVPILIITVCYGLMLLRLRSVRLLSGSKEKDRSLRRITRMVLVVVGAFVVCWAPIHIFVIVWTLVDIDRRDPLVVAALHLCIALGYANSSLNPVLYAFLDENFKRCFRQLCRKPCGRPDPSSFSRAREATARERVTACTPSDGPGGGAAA
UniProt P33535, whole entry: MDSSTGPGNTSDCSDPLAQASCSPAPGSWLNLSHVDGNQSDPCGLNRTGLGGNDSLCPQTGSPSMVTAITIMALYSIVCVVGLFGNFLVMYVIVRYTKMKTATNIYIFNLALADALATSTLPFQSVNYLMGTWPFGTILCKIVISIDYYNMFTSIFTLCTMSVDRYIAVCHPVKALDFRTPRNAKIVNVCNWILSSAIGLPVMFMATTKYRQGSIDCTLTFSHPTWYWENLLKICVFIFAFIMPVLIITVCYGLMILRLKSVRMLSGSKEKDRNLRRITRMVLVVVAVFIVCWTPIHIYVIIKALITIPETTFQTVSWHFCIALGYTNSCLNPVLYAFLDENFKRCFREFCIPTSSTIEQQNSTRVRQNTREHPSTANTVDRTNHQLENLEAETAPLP

What was measured:
[1] = target: Delta-type opioid receptor (Mus musculus, UniProt P32300); test: Agonist activity at delta opioid receptor in mouse vas deferens assessed as inhibition of electrically-stimulated muscle contraction; assay type: functional, tissue-based
[2] = target: Delta-type opioid receptor (Homo sapiens, UniProt P41143); test: Displacement of [3H]DPDPE from human delta opioid receptor expressed in mouse HN9.10 cells; assay type: cell-based
Mu-type opioid receptor = Mu-type opioid receptor (Rattus norvegicus, UniProt P33535); test: Displacement of [3H]DAMGO from rat mu opioid receptor expressed in mouse HN9.10 cells; assay type: cell-based

`C[C@@H](NC(=O)[C@@H](N)Cc1ccc(O)cc1)C(=O)NCC(=O)N[C@@H](Cc1ccccc1)C(=O)NCCCC[C@H](NC(=O)[C@H](Cc1c[nH]c2ccccc12)NC(=O)[C@H](CCCN=C(N)N)NC(=O)[C@@H](Cc1ccc(Cl)cc1)NC(=O)[C@@H](N)Cc1cnc[nH]1)C(=O)N[C@@H](CC(=O)O)C(=O)N[C@@H](Cc1ccccc1)C(N)=O` was tested, and the IC50 [1] was 240 nM, the IC50 [2] was 7.94 nM and the Ki [2] was 3.5 nM. The IC50 (Mu-type opioid receptor) was 31.6 nM and the Ki (Mu-type opioid receptor) was 7.4 nM.
